Consider one compound from patent US20250011311A1, “AMIDO HETEROAROMATIC COMPOUNDS” (AstraZeneca AB, priority 2022, published 2025).

Amino acid sequences for entries named in this document (tags omitted). Residues count along the entry.
UniProt P51659, 1-311: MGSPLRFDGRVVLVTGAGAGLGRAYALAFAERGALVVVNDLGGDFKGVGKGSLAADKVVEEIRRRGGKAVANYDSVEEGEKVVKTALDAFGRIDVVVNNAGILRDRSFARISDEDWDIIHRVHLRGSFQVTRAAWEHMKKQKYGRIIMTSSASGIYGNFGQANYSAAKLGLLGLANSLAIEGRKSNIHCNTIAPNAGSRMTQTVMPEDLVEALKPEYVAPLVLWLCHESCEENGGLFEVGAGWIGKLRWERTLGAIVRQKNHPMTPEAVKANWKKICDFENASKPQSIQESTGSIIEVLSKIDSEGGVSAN

The IC50 is the concentration needed to halve the response being measured.

The target in the assay is recombinant 17bHSD4 (M1-N311) (Homo sapiens (Human), UniProt P51659). Briefly: In Vitro 17bHSD4 Enzyme Assay. In kind it is biochemical. As to conditions: 40 nM 17bHSD4, 0.125 mM NAD, 15 μM Estradiol, 1.5 h; NADH fluorescence; read-out: 17HSD17b4 Enzyme assay IC50. Here is the method:
In Vitro 17bHSD4 Enzyme Assay
10 concentration of compounds (0.2 μl) in DMSO was added to GREINER FLUOTRAC 200 384 well plate (781076) using ECHO dispensing (BECKMAN COULTER). 80 nl of 10 mM Estradiol (SIGMA, E8875) was added using Echo dispensing. The enzyme reaction was initiated by addition, using MULTIDROP COMBI dispensing (THERMO FISHER), of 40 μl of a mix containing recombinant 17bHSD4 (M1-N311) and NAD. Final assay conditions were 40 nM of 17bHSD4, 0.125 mM of NAD, 15 μM Estradiol and various concentrations of compound in buffer (5 mM EDTA (TEKNOVA E0306), 0.01% DDM (AFFYMETRIX D310) in 50 mM Tris-Cl, pH 7.4). After each addition plates were centrifuged for 1 min at 150×g (EPPENDORF, 5810R, A-4-81). NADH formation was measured by fluorescence intensity (FI) (Ex360/Em460) at time zero (to) and at 1.5 h (t1) in a PHERASTAR FSX (BMG LABTECH). FI for each sample was calculated as FI at t1 minus FI at t0.
[…] […] was used for curve fitting and calculation of IC50 values.
Compound effect was calculated with the formula below;
where X represents the effect in the presence of test compound, min is DMSO and max is the maximum inhibition of enzyme using a known inhibitor as control.

As to `O=C(c1noc(-c2cc(F)c(F)c(O)c2F)n1)N1CC2CC2(c2ccccc2)C1` (stereo not shown) [Example 77, (1-Phenyl-3-azabicyclo[3.1.0]hexan-3-yl)(5-(2,4,5-trifluoro-3-hydroxyphenyl)-1,2,4-oxadiazol-3-yl)methanone], the IC50 came out at 7 µM.
